# Bioassay records (PubChem BioAssay)
# RAD52 anneal inh = RAD52 DNA annealing inhibitors, primary screen, biochemical, FRET, single point, set 2. DNA repair protein RAD52 homolog (Homo sapiens), P43351. inhibition, % at 18.7 µM. 0.46% of 360,000 active. AID 651710, 2012. recombinant RAD52 DNA annealing, FRET fluorescence;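 active means every replicate showing at least 50% inhibition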
# Casp6 inh = human caspase-6 inhibitors, primary screen, biochemical, VEID-R110 fluorescence, single point, set 2; 0.53% of 350,000 active; inhibition, % at 12.5 µM; purified caspase-6, Z-VEID-R110 cleavage fluorescence; AID 686996, 2013; P55212;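 active means mean inhibition across replicates at least about 35%, with every replicate also reaching that limit, limit read from the data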;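 further: 0% = median of neutral control wells and 100% = no fluorescence left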
# RAD54 branch = inhibitors of human RAD54 branch migration, primary screen, biochemical, fluorescence, single point; DNA repair and recombination protein RAD54-like (Homo sapiens), Q92698; RAD54 Holliday junction branch migration, FAM/BHQ fluorescence; inhibition, % at 10.4 µM; 0.14% of 360,000 active; AID 602329, 2012;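 active means mean normalized replicate activity at least 40 and at least half of replicates scoring 40 or more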;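 further: 0% = median of neutral control wells and 100% = median of positive control wells; inhibitors cause a drop in the FAM fluorescence signal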
# UUG fidelity = yeast start codon fidelity modulation | S. cerevisiae UUG-firefly luciferase reporter, luminescence/redox ratio | activity score, % at 18.7 µM | 0.13% of 350,000 active | AID 602363;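 active means replicate mean at a twofold rise or more, about +100% in these data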;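 further: firefly luciferase made from a UUG start codon reports start codon fidelity; reporter light over untreated wells divided by growth signal over untreated wells; some hits fall short of that in this replicate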
# PglD inh = C. jejuni PglD acetyltransferase inhibitors, primary screen, biochemical, DTNB colorimetric, single point; UDP-N-acetylbacillosamine N-acetyltransferase PglD (Campylobacter jejuni); purified PglD enzyme, DTNB colorimetric CoA detection; inhibition, % at 12.5 µM; 0.098% of 360,000 active; in the data active means inhibition above about 16%, passing the limit was not always enough
# GSIS activator = GLuc luminescence reporter in INS-1E cells, primary screen for activators of glucose-dependent secretion of insulin; AID 743287, 2014; 0.61% of 370,000 active; INS-1E GLuc reporter insulin secretion, 2-3 h; activation, % at 16.6 µM;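 active means lowest replicate activation of at least 40%, so every replicate reaches that level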;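 further: 0% = median of neutral control wells and 100% = median of IBMX positive control wells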
# Numbers without * were called inactive; / = no result. In the library only some 1.5% were active in any assay of this set; here they are far more common.
# Short keys: A = RAD52 anneal inh; B = Casp6 inh; C = RAD54 branch; D = UUG fidelity; E = PglD inh; F = GSIS activator
COc1ccc(NC(=O)N(C)C[C@H]2OCCCC[C@@H](C)Oc3ccc(NS(=O)(=O)c4cn(C)cn4)cc3C(=O)N([C@H](C)CO)C[C@@H]2C)cc1
  A: -3.4 | B: 59.9* | C: 5.3 | D: -16.6 | E: -1.8 | F: 0.4
COc1ccc(NC(=O)N(C)C[C@H]2OCCCC[C@@H](C)Oc3ccc(NS(=O)(=O)c4ccccc4)cc3C(=O)N([C@H](C)CO)C[C@@H]2C)cc1
  A: 98.8* | B: 2.8 | C: 0.3 | D: 9.3 | E: 2.5 | F: 0.6
C[C@H]1CCCCO[C@H](CN(C)C(=O)Nc2ccc(F)cc2)[C@@H](C)CN([C@@H](C)CO)C(=O)c2cc(NC(=O)Cc3ccccc3)ccc2O1
  A: -28.5 | B: 43.1* | C: 5.2 | D: -5.2 | E: -3.2 | F: -41.2
COc1ccc(NC(=O)N(C)C[C@H]2OCCCC[C@@H](C)Oc3ccc(NS(=O)(=O)c4ccccc4)cc3C(=O)N([C@@H](C)CO)C[C@H]2C)cc1
  A: -26.3 | B: -1.0 | C: -2.8 | D: 15.7 | E: 4.1 | F: -7.6
C[C@@H]1CCCCO[C@H](CN(C)C(=O)Nc2ccc(F)cc2)[C@H](C)CN([C@@H](C)CO)C(=O)c2cc(NC(=O)Cc3ccccc3)ccc2O1
  A: -32.9 | B: 1.0 | C: -1.9 | D: -7.1 | E: 0.0 | F: -22.0
COc1ccc(NC(=O)N(C)C[C@H]2OCCCC[C@H](C)Oc3ccc(NS(=O)(=O)c4cn(C)cn4)cc3C(=O)N([C@H](C)CO)C[C@@H]2C)cc1
  A: -22.9 | B: -1.3 | C: -11.5 | D: 5.3 | E: -3.3 | F: -1.1
C[C@@H]1CN([C@H](C)CO)C(=O)c2cc(NS(=O)(=O)c3cn(C)cn3)ccc2O[C@H]1CN(C)C(=O)Nc1ccc(C(F)(F)F)cc1
  A: -5.4 | B: -0.3 | C: -1.0 | D: -6.2 | E: -0.7 | F: 12.8
CC1CC1C(=O)Nc1cc(C(F)(F)F)ccc1N1CCOCC1 (configuration not stated)
  A: -7.8 | B: -0.6 | C: 10.8 | D: -14.5 | E: -0.8 | F: 47.6*
CC(C)(C)c1ccc(S(=O)(=O)N2CC(C(=O)O)Oc3ccc(Cl)cc32)cc1 (configuration not stated)
  A: -9.7 | B: 1.2 | C: -0.3 | D: -13.0 | E: 3.9 | F: 141.6*
COc1ccc(S(=O)(=O)N2CC(C(=O)O)Oc3ccc(Cl)cc32)cc1 (configuration not stated)
  A: -21.8 | B: -1.0 | C: 3.7 | D: 1.0 | E: 4.6 | F: -5.6
CC(=O)c1ccc(C(=O)N2CCCC(C(=O)c3ccc(Cl)cc3)C2)s1 (configuration not stated)
  A: -3.6 | B: 1.5 | C: 8.3 | D: 1.8 | E: -4.0 | F: -16.1
CC(=O)Oc1cc(C(=O)OCC(=O)NC23CC4CC(CC(C4)C2)C3)cc(OC(C)=O)c1OC(C)=O
  A: -2.6 | B: 41.3* | C: -3.1 | D: 0.0 | E: 1.6 | F: -3.8
Cc1cccc(C(=O)NC(=S)NNC(=O)COc2c(C)cccc2C)c1
  A: / | B: / | C: / | D: / | E: / | F: 75.9*
Cc1cccc(C(=O)NC(=S)NNC(=O)Cc2ccccc2)c1
  A: -17.1 | B: -6.2 | C: / | D: / | E: / | F: -60.5
Cc1cccn2c(=O)c3cc(C(=O)NCc4ccco4)c(=N)n(CCOCCO)c3nc12
  A: / | B: / | C: 73.3* | D: -2.2 | E: 1.3 | F: /
O=C(O)c1ccc(NS(=O)(=O)c2ccc3c(c2)C2C=CCC2C(c2ccccc2F)N3)cc1 (configuration not stated)
  A: -103.7 | B: 46.5* | C: / | D: / | E: / | F: -28.6
CCOC(=O)/C=C(\C)Sc1cc(O)c2ccccc2c1O
  A: -2.3 | B: 94.0* | C: 2.7 | D: -27.4 | E: 6.4 | F: -8.3
CCOC(=O)Nc1cc(Br)c2c(c1)OCCO2
  A: / | B: / | C: 6.7 | D: -12.9 | E: -1.8 | F: 8.1
O=C1CSC(c2ccccc2)N1c1ccccc1F (configuration not stated)
  A: 6.6 | B: -2.8 | C: -8.5 | D: -10.9 | E: -4.0 | F: 38.7
O=C1CSC(c2ccccc2)N1c1ccc(F)cc1F (configuration not stated)
  A: 0.3 | B: -3.7 | C: -5.0 | D: -23.2 | E: -5.5 | F: 47.8*
NC1=NC[C@H](Cc2ccc(O)cc2)N1CCCCC1CCCCC1
  A: -2.5 | B: 14.9 | C: 16.4 | D: 1.1 | E: -0.6 | F: /
NC1=NC[C@H](Cc2ccccc2)N1CCCCC1CCCCC1
  A: -81.9 | B: 18.9 | C: 26.0 | D: -7.8 | E: -5.8 | F: 469.5*
COc1ccc2c3c(n(C)c2c1)[C@@H](CO)N(S(C)(=O)=O)CC31CCN(Cc2nccs2)CC1
  A: 15.8 | B: 0.0 | C: / | D: / | E: / | F: 1.2
COc1ccc([N+](=O)[O-])c2c(=O)ccoc12
  A: / | B: / | C: / | D: / | E: / | F: 41.0*
CCOC(=O)c1cc(=O)c2c([N+](=O)[O-])ccc(OC)c2o1
  A: 2.6 | B: -0.6 | C: 6.2 | D: -12.2 | E: 0.0 | F: 0.9

# 3 structures already listed, arranged by count of non-hydrogen atoms, largest number first.
# Short keys: A = RAD52 anneal inh; B = Casp6 inh; C = RAD54 branch; D = UUG fidelity; E = PglD inh; F = GSIS activator
COc1ccc(NC(=O)N(C)C[C@H]2OCCCC[C@@H](C)Oc3ccc(NS(=O)(=O)c4cn(C)cn4)cc3C(=O)N([C@H](C)CO)C[C@@H]2C)cc1
  A: -3.4 | B: 59.9* | C: 5.3 | D: -16.6 | E: -1.8 | F: 0.4
CC1CC1C(=O)Nc1cc(C(F)(F)F)ccc1N1CCOCC1 (configuration not stated)
  A: -7.8 | B: -0.6 | C: 10.8 | D: -14.5 | E: -0.8 | F: 47.6*
CCOC(=O)c1cc(=O)c2c([N+](=O)[O-])ccc(OC)c2o1
  A: 2.6 | B: -0.6 | C: 6.2 | D: -12.2 | E: 0.0 | F: 0.9

# (next part)
# Short keys: A = RAD52 anneal inh; B = Casp6 inh; C = RAD54 branch; D = UUG fidelity; E = PglD inh; F = GSIS activator
Cc1ccc(CC(CC(=O)O)C(=O)NCC23CC4CC(CC(C4)C2)C3)cc1 (configuration not stated)
  A: -22.2 | B: 0.6 | C: / | D: / | E: / | F: -13.9
COc1ccc(CCNC(=O)COC(=O)Cc2c[nH]c3ccccc23)cc1OC
  A: -9.4 | B: 1.7 | C: -4.6 | D: -13.1 | E: -0.1 | F: 51.8*
COc1ccc(CCNC(=O)COC(=O)CCC(=O)c2cccs2)cc1OC
  A: -7.0 | B: -3.0 | C: -6.0 | D: -12.5 | E: 5.8 | F: 38.0
COc1ccc(CCNC(=O)C(=O)c2c[nH]c3ccccc23)cc1OC
  A: -3.1 | B: 2.7 | C: 1.2 | D: -15.0 | E: -2.3 | F: 12.3
COc1ccc(CCNC(=O)COC(=O)CCC(=O)c2ccc(F)cc2)cc1OC
  A: 4.0 | B: 0.9 | C: / | D: / | E: / | F: 86.7*
CO[C@H]1CN(C)C(=O)c2ccc(NC(=O)NC(C)C)cc2OC[C@@H](C)N(Cc2ccccc2)C[C@@H]1C
  A: 9.7 | B: / | C: 9.2 | D: 16.4 | E: 1.5 | F: -28.1
COc1ccc(C2=NOC(C(=O)NCc3ccccn3)C2)cc1 (configuration not stated)
  A: / | B: / | C: -2.3 | D: -16.7 | E: -1.2 | F: /
Cc1ccc(S(=O)(=O)N2CCC(C(=O)NCCCN3CCOCC3)CC2)cc1C
  A: 4.4 | B: 59.9* | C: -6.8 | D: -14.3 | E: -3.0 | F: 17.5
COc1ccc(S(=O)(=O)N2CCC(C(=O)NCc3ccccn3)CC2)cc1OC
  A: / | B: / | C: 20.7 | D: -8.6 | E: 6.9 | F: 46.1*
COc1ccc(C2=NOC(C(=O)NCc3ccccn3)C2)cc1OC (configuration not stated)
  A: / | B: / | C: -4.9 | D: -28.3 | E: 2.0 | F: 94.4*
COc1cccc(-c2cc3nc(NCc4ccc5occc5c4)n(C)c(=O)c3s2)c1
  A: 0.0 | B: -0.5 | C: -7.8 | D: -22.2 | E: -1.5 | F: 7.9
CC(C)OC(=O)Nc1ccc2c(c1)N(C(=O)CCN1CCN(CCO)CC1)c1ccccc1CC2
  A: -4.8 | B: -0.4 | C: 4.7 | D: -5.5 | E: 9.2 | F: 5.0
Cc1ccc(C2C(C#N)=C(N)Oc3nc(-c4ccccc4)[nH]c32)o1 (configuration not stated)
  A: / | B: / | C: 12.4 | D: -16.8 | E: -1.8 | F: /
N#CC1=C(N)Oc2nc(-c3ccccc3)[nH]c2C1c1cccnc1 (configuration not stated)
  A: / | B: / | C: -11.6 | D: -32.9 | E: -3.3 | F: 47.7*
